Assay results from patent US7390500B2.
Only a part of the results on these compounds is given; other tests are left out.

Experiments:
[1] = Saturation solubility of fentanyl in microreservoir liquids
[2] = Solubility studies of the active substance in amine-resistant polysiloxane polymers; details: hydrophobic polymers, amine-resistant polysiloxanes

CCC(=O)N(c1ccccc1)C1CCN(CCc2ccccc2)CC1
Saturation solubility of fentanyl ([1]; in 1,3-Butanediol): 10 % w/w | Saturation solubility of fentanyl ([1]; in Diethylene glycol diethyl ether): 26 % w/w | Saturation solubility of fentanyl ([1]; in Dipropylene glycol): 18 % w/w | Saturation solubility of fentanyl ([1]; in N-Methylpyrrolidone): 26 % w/w | Saturation solubility of fentanyl ([1]; in Transcutol (Diethylene glycol monoethyl ether)): 25 % w/w | solubility in polymers [2]: less than 0.5 % by weight
